{"sequences": {"note": "Amino acid sequences for entries named in this document (tags omitted). A change or cut given only in a name is not applied to a line headed by its entry.", "UniProt Q9Y3Z3": "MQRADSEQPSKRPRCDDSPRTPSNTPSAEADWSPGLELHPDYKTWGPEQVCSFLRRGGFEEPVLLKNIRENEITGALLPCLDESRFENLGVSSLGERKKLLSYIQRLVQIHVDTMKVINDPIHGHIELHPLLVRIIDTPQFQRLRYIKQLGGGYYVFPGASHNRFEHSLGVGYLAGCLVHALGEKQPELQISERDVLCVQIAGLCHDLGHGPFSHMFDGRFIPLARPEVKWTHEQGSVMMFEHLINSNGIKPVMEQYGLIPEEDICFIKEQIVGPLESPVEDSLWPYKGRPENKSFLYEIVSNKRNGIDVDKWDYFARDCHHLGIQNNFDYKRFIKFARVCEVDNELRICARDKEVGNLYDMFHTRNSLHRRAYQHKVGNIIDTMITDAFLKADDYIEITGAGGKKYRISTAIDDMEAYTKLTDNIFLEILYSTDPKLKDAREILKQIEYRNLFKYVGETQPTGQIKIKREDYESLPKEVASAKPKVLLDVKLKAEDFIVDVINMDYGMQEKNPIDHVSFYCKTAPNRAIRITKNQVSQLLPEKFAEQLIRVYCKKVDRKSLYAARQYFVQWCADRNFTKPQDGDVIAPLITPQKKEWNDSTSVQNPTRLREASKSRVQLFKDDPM"}, "source": "ChEMBL document CHEMBL5483193", "about": "“Identification and evaluation of small-molecule inhibitors against the dNTPase SAMHD1 via a comprehensive screening funnel” (iScience, 2024)", "note": "Only a part is listed here, and it is no random draw.", "data": [{"molecular_target": "Deoxynucleoside triphosphate triphosphohydrolase SAMHD1 (Homo sapiens) (UniProt Q9Y3Z3)", "assay": "Compound was evaluated for the inhibition of human recombinant SAMHD1 at 5uM in a enzyme-coupled malachite green assay; call rule not given here", "values": [{"smiles": "NC(=O)Nc1ccc([As](=O)(O)O)cc1", "inhibition": "inactive: -7.81%"}, {"smiles": "Cc1cc(C)nc(SC(NC(=O)c2ccccc2)C(Cl)(Cl)Cl)n1", "note": "(stereo not drawn)", "inhibition": "inactive: -4.5%"}, {"smiles": "COc1cccc(OC)c1C(=O)N1C[C@@H]2CCCN2[C@@H]2CCCC[C@@H]21", "inhibition": "inactive: -8.16%"}]}]}
